## Apparent affinities of Ab-14 variants for a coronavirus HR2 peptide

Binding partner: SARS-CoV-2 spike HR2 peptide, sequence PDVDLGDISGINAS.

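AAYL49 was designed without a model: most single CDR substitutions and a random sample of double and triple ones. The assay is AlphaSeq: two haploid yeast populations carry antibody and antigen on their surface. After mating in shaken culture at 30 °C for 16 h, diploids were selected and their barcode pairs sequenced. Read counts were normalised to the haploid input and turned into Kd by a linear fit to BCL2-family pairs of known affinity, for each replicate. There are three technical replicates.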

Each scFv is VH, the linker GGGGSGGGGSGGGGS, VL, as in the parent Ab-14, and differs from it in the CDRs of the heavy chain only.
VH: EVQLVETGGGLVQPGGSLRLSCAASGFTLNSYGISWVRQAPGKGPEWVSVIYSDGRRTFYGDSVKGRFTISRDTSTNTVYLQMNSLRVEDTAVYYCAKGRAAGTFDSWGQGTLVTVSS
VL: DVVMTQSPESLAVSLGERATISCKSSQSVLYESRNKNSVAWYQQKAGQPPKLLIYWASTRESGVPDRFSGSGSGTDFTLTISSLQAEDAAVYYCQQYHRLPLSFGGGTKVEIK

The parent's heavy chain CDRs are GFTLNSYGIS, VIYSDGRRTFYGDSVK, GRAAGTFDS; each variant's own CDRs replace them letter for letter.
Affinities are written as log10 Kd with Kd in nM; a lower number is a better binder.
A mean of the replicates is given; it leaves out those without a signal.
Where no diploid with the target was found in that replicate, the entry reads "ND": below detection, most likely a poor binder, though not proof of it.
Background: pairings of library AAYL49 with three empty control strains gave a value in 15% of cases (median 4.06, 5th percentile 2.83). Values in that range, when seen in few replicates, are hard to tell from nonspecific mating. The control count says in how many pairings with the empty strains this scFv gave a signal, with their mean in brackets.
For reference, the parent read 0.65 as the reference entry and 4.11 (one replicate of three) as a member of this library.

{"CDR-H1": "GFTLNSYGIS", "CDR-H2": "VIYDDVRRTFYGDSVK", "CDR-H3": "GRAAGTFDS", "replicates, log10 nM": "ND / ND / ND", "mean log10 Kd (nM)": "ND", "signal with controls": "1/9 (3.26)"}
{"CDR-H1": "GFTLNSYAKS", "CDR-H2": "VIYSDGRRTFYGDSVK", "CDR-H3": "GRAAGTSDS", "replicates, log10 nM": "6.04 / ND / ND", "mean log10 Kd (nM)": "6.04", "signal with controls": "3/9 (4.74)"}
{"CDR-H1": "GFTLNSYGIS", "CDR-H2": "VIYSDGRRTFYLDSVK", "CDR-H3": "GRAAGSFWS", "replicates, log10 nM": "0.35 / 0.59 / 0.55", "mean log10 Kd (nM)": "0.50", "signal with controls": "1/9 (3.41)"}
{"CDR-H1": "QFTLNSYGIS", "CDR-H2": "VIGSDGRRTFYGDSVK", "CDR-H3": "GRAAGTFCS", "replicates, log10 nM": "ND / ND / ND", "mean log10 Kd (nM)": "ND", "signal with controls": "1/9 (4.53)"}
{"CDR-H1": "GFTLNSYGIS", "CDR-H2": "VITSDGRRTFYGDSDK", "CDR-H3": "KRAAGTFDS", "replicates, log10 nM": "ND / 4.92 / 5.14", "mean log10 Kd (nM)": "5.03", "signal with controls": "4/9 (3.76)"}
{"CDR-H1": "GFTLNQYGIS", "CDR-H2": "VDYSDGRRTFYGDSVD", "CDR-H3": "GRAAGTFDS", "replicates, log10 nM": "ND / ND / ND", "mean log10 Kd (nM)": "ND", "signal with controls": "0/9"}
{"CDR-H1": "QFTLNSYGII", "CDR-H2": "VIYSDGRETFYGDSVK", "CDR-H3": "GRAAGTFDS", "replicates, log10 nM": "ND / 4.08 / ND", "mean log10 Kd (nM)": "4.08", "signal with controls": "0/9"}
{"CDR-H1": "GFTLNSYGIS", "CDR-H2": "VRYSDGRRTFYGDSVK", "CDR-H3": "PVAAGTFDS", "replicates, log10 nM": "4.82 / ND / ND", "mean log10 Kd (nM)": "4.82", "signal with controls": "4/9 (4.18)"}
{"CDR-H1": "GFTLVSYGIS", "CDR-H2": "VIYSDGRRTFYIDSVE", "CDR-H3": "GRAAGTFDS", "replicates, log10 nM": "3.19 / 2.63 / 2.71", "mean log10 Kd (nM)": "2.85", "signal with controls": "0/9"}
{"CDR-H1": "GFTLISYGIS", "CDR-H2": "VIYSDGRRTFAGDSVG", "CDR-H3": "GRAAGTFDS", "replicates, log10 nM": "ND / ND / ND", "mean log10 Kd (nM)": "ND", "signal with controls": "0/9"}
{"CDR-H1": "GFTLNSYGIS", "CDR-H2": "VKYSDGRRTFYGDSVY", "CDR-H3": "GRAAGTFMS", "replicates, log10 nM": "ND / ND / ND", "mean log10 Kd (nM)": "ND", "signal with controls": "0/9"}
{"CDR-H1": "GFTLNSYGMS", "CDR-H2": "VIYSDGARTFYGDSVK", "CDR-H3": "GRNAGTFDS", "replicates, log10 nM": "5.38 / 2.96 / 2.22", "mean log10 Kd (nM)": "3.52", "signal with controls": "0/9"}
{"CDR-H1": "GFTLNWYGIS", "CDR-H2": "VIYVDGRRTFYGDSVK", "CDR-H3": "GRAAGTFDS", "replicates, log10 nM": "ND / ND / ND", "mean log10 Kd (nM)": "ND", "signal with controls": "2/9 (3.91)"}
{"CDR-H1": "GFTLNSYGIS", "CDR-H2": "VIYSDGRRTRYIDSVK", "CDR-H3": "GRAAGTFDA", "replicates, log10 nM": "ND / ND / ND", "mean log10 Kd (nM)": "ND", "signal with controls": "1/9 (4.16)"}
{"CDR-H1": "GFTLNSYGIQ", "CDR-H2": "VVYSDGRRTFYGDSVK", "CDR-H3": "GRAAGTFDS", "replicates, log10 nM": "ND / ND / ND", "mean log10 Kd (nM)": "ND", "signal with controls": "0/9"}
{"CDR-H1": "GFTLNSYGIS", "CDR-H2": "HIYSDGRRTFYGDSVK", "CDR-H3": "GRFAGTMDS", "replicates, log10 nM": "ND / ND / ND", "mean log10 Kd (nM)": "ND", "signal with controls": "4/9 (4.12)"}
{"CDR-H1": "GFTLNSYGIS", "CDR-H2": "VIYSDGRRTFYGDKVK", "CDR-H3": "GRAAVTFDR", "replicates, log10 nM": "ND / ND / ND", "mean log10 Kd (nM)": "ND", "signal with controls": "0/9"}
{"CDR-H1": "QFTLNSRGIS", "CDR-H2": "VIYCDGRRTFYGDSVK", "CDR-H3": "GRAAGTFDS", "replicates, log10 nM": "ND / ND / ND", "mean log10 Kd (nM)": "ND", "signal with controls": "2/9 (4.19)"}
{"CDR-H1": "GFTLNSYGIS", "CDR-H2": "VIYSDGRREFHGDHVK", "CDR-H3": "GRAAGTFDS", "replicates, log10 nM": "ND / ND / ND", "mean log10 Kd (nM)": "ND", "signal with controls": "1/9 (4.28)"}
{"CDR-H1": "GFTLNSYGIS", "CDR-H2": "VIYSDGRREFYGDSVK", "CDR-H3": "DAAAGTFDS", "replicates, log10 nM": "ND / 3.90 / ND", "mean log10 Kd (nM)": "3.90", "signal with controls": "1/9 (4.50)"}
{"CDR-H1": "GFTLNSYYIS", "CDR-H2": "VIISDGRRTFYGDSVA", "CDR-H3": "GRAAGTFDS", "replicates, log10 nM": "ND / ND / ND", "mean log10 Kd (nM)": "ND", "signal with controls": "1/9 (4.60)"}
{"CDR-H1": "GFTLNSYGID", "CDR-H2": "VIYSDERRYFYGDSVK", "CDR-H3": "GRAAGTFDS", "replicates, log10 nM": "ND / ND / ND", "mean log10 Kd (nM)": "ND", "signal with controls": "0/9"}
{"CDR-H1": "GFTLESYGIS", "CDR-H2": "VIYSDGRPTFYGESVK", "CDR-H3": "GRAAGTFDS", "replicates, log10 nM": "ND / 4.39 / ND", "mean log10 Kd (nM)": "4.39", "signal with controls": "1/9 (3.06)"}
{"CDR-H1": "GFTLFDYGIS", "CDR-H2": "VIYSDGRRTFYGDSVK", "CDR-H3": "GRAAGTFDS", "replicates, log10 nM": "2.48 / 2.57 / 3.17", "mean log10 Kd (nM)": "2.74", "signal with controls": "2/9 (4.32)"}
{"CDR-H1": "GFTLNQYGIS", "CDR-H2": "AIYSDGCRTFYGDSVK", "CDR-H3": "GRAAGTFDS", "replicates, log10 nM": "ND / 3.61 / ND", "mean log10 Kd (nM)": "3.61", "signal with controls": "0/9"}
{"CDR-H1": "GFTLNSYGIS", "CDR-H2": "VGMSDGRRTFEGDSVK", "CDR-H3": "GRAAGTFDS", "replicates, log10 nM": "ND / ND / ND", "mean log10 Kd (nM)": "ND", "signal with controls": "0/9"}
{"CDR-H1": "GFTLNSYGSS", "CDR-H2": "VIYSDGRRTFYGDSVM", "CDR-H3": "GRAAGYFDS", "replicates, log10 nM": "ND / ND / ND", "mean log10 Kd (nM)": "ND", "signal with controls": "2/9 (4.51)"}
{"CDR-H1": "GFTLNEYGIS", "CDR-H2": "VIYSDIRFTFYGDSVK", "CDR-H3": "GRAAGTFDS", "replicates, log10 nM": "4.24 / ND / ND", "mean log10 Kd (nM)": "4.24", "signal with controls": "0/9"}
{"CDR-H1": "GFVLNSYGIS", "CDR-H2": "MIYSDGRRTFYGDSVK", "CDR-H3": "GRAAETFDS", "replicates, log10 nM": "ND / ND / 3.16", "mean log10 Kd (nM)": "3.16", "signal with controls": "0/9"}
{"CDR-H1": "GFTLNSYGIS", "CDR-H2": "VIWSDGRRTFYGDSKK", "CDR-H3": "GRMAGTFDS", "replicates, log10 nM": "ND / ND / ND", "mean log10 Kd (nM)": "ND", "signal with controls": "0/9"}

The opening 2 entries, copied out:

{"CDR-H1": "GFTLNSYGIS", "CDR-H2": "VIYDDVRRTFYGDSVK", "CDR-H3": "GRAAGTFDS", "replicates, log10 nM": "ND / ND / ND", "mean log10 Kd (nM)": "ND", "signal with controls": "1/9 (3.26)"}
{"CDR-H1": "GFTLNSYAKS", "CDR-H2": "VIYSDGRRTFYGDSVK", "CDR-H3": "GRAAGTSDS", "replicates, log10 nM": "6.04 / ND / ND", "mean log10 Kd (nM)": "6.04", "signal with controls": "3/9 (4.74)"}

Values reported by Engelhart et al. 2022, doi:10.1038/s41597-022-01779-4 (FLAb copy).